Patent US7985541B2, “Quantitative assay for detection of newly synthesized RNA in a cell-free system and identification of RNA synthesis inhibitors” (Achillion Pharmaceuticals, Inc., priority 2004, dated 2011)

Amino acid sequences for entries named in this document (tags omitted). Residues count along the entry.
UniProt Q9WMX2, 2420-3010: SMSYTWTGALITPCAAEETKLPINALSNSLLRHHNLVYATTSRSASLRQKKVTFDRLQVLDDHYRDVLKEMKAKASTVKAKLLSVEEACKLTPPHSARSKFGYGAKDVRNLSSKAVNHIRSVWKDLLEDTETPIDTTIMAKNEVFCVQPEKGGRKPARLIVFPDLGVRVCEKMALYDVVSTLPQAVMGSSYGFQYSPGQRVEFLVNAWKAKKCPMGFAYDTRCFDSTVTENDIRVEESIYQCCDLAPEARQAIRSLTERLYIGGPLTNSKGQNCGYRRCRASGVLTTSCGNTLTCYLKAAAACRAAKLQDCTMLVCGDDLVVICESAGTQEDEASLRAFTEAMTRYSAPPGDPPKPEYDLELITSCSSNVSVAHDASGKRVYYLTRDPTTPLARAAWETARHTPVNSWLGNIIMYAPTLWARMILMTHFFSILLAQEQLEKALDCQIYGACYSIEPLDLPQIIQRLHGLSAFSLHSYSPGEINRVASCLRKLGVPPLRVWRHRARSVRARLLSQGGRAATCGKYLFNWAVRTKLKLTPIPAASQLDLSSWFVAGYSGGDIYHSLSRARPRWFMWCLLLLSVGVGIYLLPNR

Tests used:
[1] = target: HCV replication complexes isolated from a membrane fraction (Hepatitis C virus genotype 1b, UniProt Q9WMX2); conditions: inhibitor 100, 20 and 4 μM, 30° C., 2 hours
[2] = target: T1, HCV replicase complex (membrane fraction of Huh-7 cells expressing HCV replicon) (Hepatitis C virus genotype 1b, UniProt Q9WMX2); conditions: test compound 10 μM
[3] = target: T1, HCV replicase complex (membrane fraction of Huh-7 cells expressing HCV replicon); conditions: test compound 10 μM; remark: listed apart in the source

CC(C)CCn1c(=O)c(C2=NS(=O)(=O)c3ccccc3N2)c(O)c2ccccc21 [Test compound]
Double-stranded RNA band (elongation of previously initiated RNAs) in autoradiogram [1]: remains | Single-stranded RNA band (newly initiated RNAs) in autoradiogram [1]: disappears | Copies as % of samples with no test compound (no RNAse protection assay) [2]: 66% | Reduction in total viral RNA synthesis with no RNAse protection [2]: less than half reduction | Copy number after PCR with no RNAse protection assay ([2]; control without compound 46942): 31156 | Copies as % of samples with no test compound (with RNAse protection assay) [3]: 12% | Reduction in the amount of newly initiated viral RNA synthesis after RNAse protection [3]: ~10 fold | Copy number after PCR with RNAse protection assay ([3]; control without compound 137494): 16970
